Assays:
L. mesenteroides PTA = L. mesenteroides PTA (Leuconostoc mesenteroides, UniProt Q03W64); format: biochemical

Protein sequences, listed by entry. Tags and fused reporters are not part of them. Residues count along the entry.
UniProt Q03W64, 1-326: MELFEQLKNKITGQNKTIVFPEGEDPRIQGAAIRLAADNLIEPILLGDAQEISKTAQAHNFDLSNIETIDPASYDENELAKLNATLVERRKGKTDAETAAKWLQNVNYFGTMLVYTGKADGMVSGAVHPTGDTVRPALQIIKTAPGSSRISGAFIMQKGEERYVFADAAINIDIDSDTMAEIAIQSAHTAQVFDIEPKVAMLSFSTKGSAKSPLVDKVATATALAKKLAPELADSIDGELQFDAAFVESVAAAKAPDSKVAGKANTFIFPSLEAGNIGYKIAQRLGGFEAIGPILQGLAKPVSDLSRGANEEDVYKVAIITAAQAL

## Dimethyldithiocarbamate [DMDC]
MRC-5
  50% lethal conc. LC50: 11 µg/mL
  85% survival conc.: 2 µg/mL
  LC50/MIC: 7
A549
  50% lethal conc. LC50: 24 µg/mL
  85% survival conc.: 10 µg/mL
  LC50/MIC: 15
THP-1
  50% lethal conc. LC50: 327 µg/mL
  85% survival conc.: 200 µg/mL
  LC50/MIC: 210
L. mesenteroides PTA
  IC50: > 1000 µM
